Results reported in ChEMBL document CHEMBL4354845, “Discovery and Structure-Activity Relationships of Nociceptin Receptor Partial Agonists That Afford Symptom Ablation in Parkinson's Disease Models” (J Med Chem, 2020).

Tests used:
Nociceptin receptor [1] = target: T1, Nociceptin receptor (Homo sapiens, UniProt P41146); test: Displacement of [3H]N/OFQ from human NOP expressed in CHO cell membrane incubated for 60 mins by liquid scintillation counting method
Mu-type opioid receptor [2] = target: T2, Mu-type opioid receptor (Homo sapiens, UniProt P35372); test: Displacement of [3H]DAMGO from human MOP expressed in CHO cell membrane incubated for 60 mins by liquid scintillation counting method
[3] = target: Delta-type opioid receptor (Homo sapiens, UniProt P41143); test: Displacement of [3H]DPDPE from human DOP expressed in CHO cell membrane incubated for 60 mins by liquid scintillation counting method
[4] = target: Kappa-type opioid receptor (Homo sapiens, UniProt P41145); test: Displacement of [3H]U69593 from human KOP expressed in CHO cell membrane incubated for 60 mins by liquid scintillation counting method
Nociceptin receptor [5] = target: T1, Nociceptin receptor; test: Agonist activity at human NOP expressed in CHO cell membrane incubated for 60 mins by [35S]GTPgammaS binding assay
Mu-type opioid receptor [6] = target: T2, Mu-type opioid receptor; test: Agonist activity at human MOP expressed in CHO cell membrane incubated for 60 mins by [35S]GTPgammaS binding assay

Row | SMILES | Ki (Nociceptin receptor [1]) [µM] | Ki (Mu-type opioid receptor [2]) [µM] | Ki [3] [µM] | Ki [4] [µM] | EC50 (Nociceptin receptor [5]) [µM] | EC50 (Mu-type opioid receptor [6]) [µM]
1 | CC(C)[C@H]1CC[C@@H](N2CCC(n3cc(C(N)=O)c4ccccc43)CC2)CC1 | 0.129 | 0.453 | 2.71 | 0.446 |  | 
2 | CC(C)[C@H]1CC[C@@H](N2CCC(n3cc(CNC(=O)CCCCCN)c4ccccc43)CC2)CC1 | 0.0231 | 0.949 | > 10 | > 10 | 0.464 | 
3 | CCNCC(=O)NCc1cn(C2CCN([C@H]3CC[C@@H](C(C)C)CC3)CC2)c2ccccc12 | 0.0159 |  | > 10 |  | 0.277 | 
4 | CC(C)[C@H]1CC[C@@H](N2CCC(n3cc(CCCN)c4ccccc43)CC2)CC1 | 0.0209 | 0.0462 | > 10 | 1.32 | 0.249 | 1.76
5 | CC(C)[C@H]1CC[C@@H](N2CCC(n3cc(CN(C)C)c4ccccc43)CC2)CC1 | 0.0438 |  | > 10 | > 10 | 0.532 | 
6 | CC(C)[C@H]1CC[C@@H](N2CCC(n3cc(CNC(N)=S)c4ccccc43)CC2)CC1 | 0.0105 | 0.0713 | 4.07 | 1.33 | 0.343 | > 10
7 | CC(C)[C@H]1CC[C@@H](N2CCC(n3cc(CN4CCC(N)CC4)c4ccccc43)CC2)CC1 | 0.216 |  | > 10 |  |  | 
8 | CC(C)[C@H]1CC[C@@H](N2CCC(N3CCc4ccccc43)CC2)CC1 | 0.0103 | 0.604 | 3.07 | 0.562 | 0.0545 | 
9 | CC(C)[C@H]1CC[C@@H](N2CCC(n3cc(CN4CCCC4)c4ccccc43)CC2)CC1 | 0.00147 | 0.453 | > 10 | 0.461 | 0.0974 | 
10 | CC(C)[C@H]1CC[C@@H](N2CCC(n3cc(CN4CC[C@@H](O)C4)c4ccccc43)CC2)CC1 | 0.00946 |  | > 10 |  | 0.575 | 
11 | CC(C)[C@H]1CC[C@@H](N2CCC(n3cc(CCCNC(N)=S)c4ccccc43)CC2)CC1 | 0.0318 |  | > 10 |  | 0.175 | 
12 | CC(C)[C@H]1CC[C@@H](N2CCC(n3cc(CN4CCC(O)CC4)c4ccccc43)CC2)CC1 | 0.064 |  | 6.03 |  | 0.446 | 
13 | CC(C)[C@H]1CC[C@@H](N2CCC(n3cc(CCNC(N)=S)c4ccccc43)CC2)CC1 | 0.0244 | 0.227 | > 10 | 0.081 | > 10 | 
14 | CC(C)[C@H]1CC[C@@H](N2CCC(n3cc(CNCCO)c4ccccc43)CC2)CC1 | 0.136 |  | > 10 |  |  | 
15 | CC(C)[C@H]1CC[C@@H](N2CCC(n3cc(CN4CC(O)C4)c4ccccc43)CC2)CC1 | 0.0236 |  | > 10 |  | 1.56 | 
16 | CC(C)[C@H]1CC[C@@H](N2CCC(n3cc(CNC(=O)[C@@H](N)CCCNC(=N)N)c4ccccc43)CC2)CC1 | 0.011 |  | > 10 |  | > 10 | 
17 | CC(C)[C@H]1CC[C@@H](N2CCC(n3cc(/C=N/O)c4ccccc43)CC2)CC1 | 0.00217 | 0.0564 | 1.69 | > 10 | 0.067 | 3.2
18 | CC(C)[C@H]1CC[C@@H](N2CCC(n3cc(CCN)c4ccccc43)CC2)CC1.Cl.Cl | 0.00227 |  | > 10 |  | 0.139 | 
